Screens deposited in PubChem BioAssay by ICCB-Longwood Screening Facility, Harvard Medical School.
The list is not random: actives were taken first. Their share in the collection is about 0.43%.
HCMV UL50-53 inh = cytomegalovirus nuclear egress complex inhibition; HTRF UL50-UL53 interaction, normalized percent inhibition; inhibition, % (test concentration not listed); 0.15% of 190,000 active; AID 1918969; in the data active = inhibition above about 27%, passing the limit was not always enough
GIV-Gai inh = inhibitors of GIV GBA-motif binding to rat Galpha-i3 | P08753 | Galpha-i3/FITC-GIV peptide fluorescence polarization, 90 min; active compounds read low; scaled: aluminum fluoride 0%, vehicle 100% | percent of control (FP), % (test concentration not listed) | 210,000 compounds, 0.42% hits;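 active means replicate mean at 85% of control or lower, very high polarization wells dropped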;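 further: lower values mean more displacement of the GIV peptide from Galpha-i3; wells of about 15 µL received 100 nL stock; the first replicate is given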
GIV-Gai FP conf = confirmation of inhibitors of GIV binding to rat Galpha-i3; FITC-GIV peptide binding to Galphai3, fluorescence polarization; hits give low values; AID 1259350; 38% of 580 active; shares compounds with GIV-Gai inh; fluorescence polarization, mP at 100 µM;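 active = inhibition score of 15 or more, meaning 100 minus mean polarization as percent of control over three replicates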;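 note: lower mP means peptide displaced from Galphai3 so more inhibition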
GIV-Gai AS conf = GIV-Galpha-i3 inhibition, AlphaScreen confirmation | shares compounds with GIV-Gai inh | AlphaScreen Galphai3-GIV binding, purified proteins, 90 min; hits give low values | AlphaScreen counts at 100 µM | 39% of 580 active | AID 1259351;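 active = inhibition score at or above a set limit, where the score is 100 minus the three-replicate mean percent of control signal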
Starred values were filed as active, the others as inactive; / = not tested or not shown.

SMILES	HCMV UL50-53 inh	GIV-Gai inh	GIV-Gai FP conf	GIV-Gai AS conf
CN1C(=O)/C(=C/c2cn(CC(=O)N3CCCC3)c3ccccc23)C(=O)NC1=S	-4.9	94.6	/	/
CCOc1cccc(N2C(=O)/C(=C/c3cn(CC(=O)N4CCOCC4)c4ccccc34)C(=O)NC2=S)c1	-3.1	82.1*	62.4	45192
CCOC(=O)c1cc(S(=O)(=O)N2CCCC2C(=O)NC2CC2)cn1C (configuration not stated)	-7.8	102.1	/	/
CCC(C)NC(=O)c1[nH]c2cc(C)ccc2c1Sc1ccc(Cl)cc1 (configuration not stated)	-13.5	101.1	/	/
Cc1ccc2c(Sc3ccc(Cl)cc3)c(C(=O)NC(C)C)[nH]c2c1	-15.7	56.6*	59.8	42527
C=CCNC(=O)COc1ccc(CCC)cc1	-8.9	100.6	/	/
O=C(NCc1cccs1)C1=CC=CN2CCS(=O)(=O)N=C12	-7.9	/	/	/
O=C(O)CSc1nnc2n1-c1ccc(Cl)cc1NN2	-265.2	47.5*	38.7*	6321*
Clc1ccc2c(c1)NNc1nncn1-2	-293.6	101.1	/	/
CC(Sc1nnc(CC(=O)Nc2ccccc2)n1C)C(=O)Nc1nccs1 (configuration not stated)	-16.5	99.5	/	/
CCN1CCN(c2ccc(N=Cc3cc(I)ccc3O)cc2)CC1	-29.2	28.1*	80.8	28751
Oc1ccc(C=Nc2ccc(N3CCOCC3)cc2)cc1O	-29.3	/	/	/
CCCS(=O)(=O)N1CCC(c2c(C)n(Cc3ccccc3C)c3ccccc23)CC1	1.4	106.8	/	/
Cc1c(C(=O)NCC2(N3CCN(C)CC3)CCCCC2)oc2ccc(Cl)cc12	5.8	103.2	/	/
CCc1ccccc1NC(=O)CSC1=C(C#N)C(c2ccc(C)o2)C2=C(CCCC2=O)N1 (configuration not stated)	/	102.8	/	/

Single values from the results shown.
Clc1ccc2c(c1)NNc1nncn1-2 in GIV-Gai inh has 101.1
O=C(NCc1cccs1)C1=CC=CN2CCS(=O)(=O)N=C12 in HCMV UL50-53 inh has -7.9

Additional results follow.
SMILES	HCMV UL50-53 inh	GIV-Gai inh	GIV-Gai FP conf	GIV-Gai AS conf
COc1cccc(=O)c2c(C)oc(C)c12	-72.7	24.9*	37.2*	7201*
CCOc1cc(/C=C/c2ccccc2OC)cc(=O)c2c(C)oc(C)c12	/	95.2	/	/
Cc1cccc(NC(=O)c2ccco2)n1	-9.4	107.9	/	/
Cc1cccc(NC(=O)C(F)(F)C(F)(F)C(F)(F)F)n1	3.7	65.3*	77.5	31955
O=C(CSc1ccccc1F)Nc1nc(-c2cccs2)cs1	-38.1	/	/	/
COc1ccc(/C=C2\SC(=O)N(CCC(=O)Nc3c(C)n(C)n(-c4ccccc4)c3=O)C2=O)cc1	-6.7	106.1	/	/
COc1ccc(/C=C2/SC(=S)N(CCC(=O)Nc3c(C)n(C)n(-c4ccccc4)c3=O)C2=O)cc1	-14.9	57.2*	75.2	43904
COc1cc2c(cc1OC)C1C(C(=O)N(C)C3CCCCC3)c3ccccc3C(=O)N1CC2 (configuration not stated)	-3.7	99.1	/	/
Cc1ccc(NC(=O)N2CCN(c3cc(=O)n4nc(-c5ccccc5C)sc4n3)CC2)c(Cl)c1	5.1	91.5	81	28227
Cc1ccccc1-c1nn2c(=O)cc(N3CCN(C(=O)Nc4cccc(Cl)c4C)CC3)nc2s1	27.8	100.3	/	/
CCSc1ncc2c(c1C#N)CCC2	25.1	105.9	/	/
C=CCSc1ncc(Cl)c(C(=O)Nc2sc3c(c2C(=O)OC)CCC3)n1	1.4	105.5	/	/
C=CCSc1ncc(Cl)c(C(=O)Nc2sc3c(c2C(=O)OC)CCCC3)n1	-18.1	85.1*	61.9	43255
Cc1ccc(-c2cn3nc(N4CCCC(C(=O)O)C4)sc3n2)cc1 (configuration not stated)	/	97.3	/	/
Cc1onc(-c2ccc(F)cc2F)c1C(=O)N1CCN(C2CCCCC2)CC1	/	111.3	/	/
O=C(CSc1nc2cc(C(=O)NCc3ccco3)ccc2c(=O)n1CC1CCCO1)c1ccc(Cl)cc1 (configuration not stated)	/	113.5	/	/
Cc1ccc(NC(=S)Nc2cccc(C(F)(F)F)c2)cc1NS(C)(=O)=O	74.5*	68.9*	50*	38510
COC(CNC(=S)Nc1cccc(C(F)(F)F)c1)OC	-1.6	103.6	/	/
CCSc1nsc(NC(=O)c2cccc(Cl)c2)n1	-5.8	101.2	/	/
S=c1nc(C2COc3ccccc3O2)[nH][nH]1 (configuration not stated)	-2.2	/	/	/
S=c1[nH]nc(C2COc3ccccc3O2)o1 (configuration not stated)	-0.6	83.0*	68.2	3039*
CCOc1c(OC)cccc1C1CC(=O)Nc2c(-c3ccccc3)csc21 (configuration not stated)	/	104.1	/	/
COn1c(C)c(C)c2c3no[n+]([O-])c3ccc21	-8.2	72.0*	60.5	22452*
Cc1c(C)[n+]([O-])c2ccc3c(non3O)c12	-97.9	93.9	/	/
O=C(CCN1C(=O)/C(=C/c2ccc3c(c2)OCO3)SC1=S)NC1=NCCS1	-50.6	83.7*	59.8	47879
O=C(CCN1C(=O)/C(=C/c2ccc3c(c2)OCO3)SC1=S)Nc1ccccc1	-8.4	/	/	/
Cc1ccn2cc(-c3cccc(NS(=O)(=O)c4cc(C)c(C)cc4C)c3)nc2c1	/	93.7	/	/
CCOCCOC(=O)C1=C(C)NC2(O)c3ccccc3C(=O)C12O (configuration not stated)	/	103.7	/	/
CCOC(=O)C1=C(C)OC2(O)c3ccccc3C(=O)C12O (configuration not stated)	-4.0	79.7*	63.7	48826
CCS(=O)(=O)c1ccc(-c2ccc(NC(=O)c3cccc(Br)c3)cc2)nn1	-5.8	109.1	/	/
COc1cc2c(cc1OC)CN(CCC(=O)O)CC2	/	91.7	66.6	39813
COc1cc2c(cc1OC)CN(CC(N)=O)CC2	-7.3	/	/	/
O=C(CSc1nnc(-c2ccco2)c(-c2ccco2)n1)Nc1ccc(C(=O)O)cc1	-64.5	76.9*	60*	2995*
COc1ccc(C(=O)CSc2nnc(-c3ccco3)c(-c3ccco3)n2)cc1	/	111.1	/	/
Cc1cccc(NC(=O)C2CCCN(c3nnc(-n4c(C)ccc4C)s3)C2)c1C (configuration not stated)	-10.2	103.2	/	/
Cc1ccc(C)n1-c1nnc(N2CCCC(C(=O)O)C2)s1 (configuration not stated)	/	86.7	58.8	7556*
CC/C(Cc1ccccc1)=N\NC(=O)c1ccc(N)cc1	-0.5	101.4	/	/
Cc1c(C=Nc2ccc(Cl)cc2)c(O)n(C)c(=O)c1C#N	-35.4	108.4	/	/
Cc1c(C=Nc2ccc(SC#N)c(Cl)c2)c(O)[nH]c(=O)c1C#N	-16.3	48.6*	73.7	40787
CCOc1ccc(OCC)c(S(=O)(=O)N(C)C2CCCCC2)c1	-7.9	/	/	/
COC(=O)c1ncn2c1C(=O)N(c1ccc3c(c1)OCCO3)C(C)(C(=O)NC1CCCCC1)C2 (configuration not stated)	-9.0	106.5	/	/
CC(=O)Nc1ccc(-n2c(C)ccc2C)c(C(=O)O)c1	4.8	/	/	/
CCCOc1ccc(Cl)cc1C(=O)O	3.2	99.9	/	/
Cc1ccc(C)n1-c1ccccc1C(=O)O	30.1	5.7*	11.4*	1962*
Cc1ccc(C)n1-c1cc(Cl)ccc1C(=O)O	79.7*	60.4*	58.8*	2339*
Cc1cccn2c(=O)cc(COc3cccc(NC(=O)COc4ccccc4)c3)nc12	/	94.5	78.8	34512
Cc1cccn2c(=O)cc(COc3cccc(NC(=O)COc4ccc(F)cc4)c3)nc12	/	99.5	/	/
CSc1scc2c1C(=O)CC(C)(C)C2	-8.5	103.2	/	/

Some of the entries above, set out differently.
Second line of a record – HCMV UL50-53 inh, GIV-Gai inh, GIV-Gai FP conf, GIV-Gai AS conf
> Cc1cccn2c(=O)cc(COc3cccc(NC(=O)COc4ccccc4)c3)nc12
 : /, 94.5, 78.8, 34512
> CCC(C)NC(=O)c1[nH]c2cc(C)ccc2c1Sc1ccc(Cl)cc1 (configuration not stated)
 : -13.5, 101.1, /, /
> Cc1ccc(-c2cn3nc(N4CCCC(C(=O)O)C4)sc3n2)cc1 (configuration not stated)
 : /, 97.3, /, /
> CC(=O)Nc1ccc(-n2c(C)ccc2C)c(C(=O)O)c1
 : 4.8, /, /, /
> CC/C(Cc1ccccc1)=N\NC(=O)c1ccc(N)cc1
 : -0.5, 101.4, /, /
> C=CCNC(=O)COc1ccc(CCC)cc1
 : -8.9, 100.6, /, /
